Results taken from PMC10609148, “Hexa-Histidine, a Peptide with Versatile Applications in the Study of Amyloid-β(1–42) Molecular Mechanisms of Action” (Molecules, 2023).

The chains behind the UniProt entries cited, without tags or fusion partners. Residues count along the entry.
UniProt P00387, 27-301: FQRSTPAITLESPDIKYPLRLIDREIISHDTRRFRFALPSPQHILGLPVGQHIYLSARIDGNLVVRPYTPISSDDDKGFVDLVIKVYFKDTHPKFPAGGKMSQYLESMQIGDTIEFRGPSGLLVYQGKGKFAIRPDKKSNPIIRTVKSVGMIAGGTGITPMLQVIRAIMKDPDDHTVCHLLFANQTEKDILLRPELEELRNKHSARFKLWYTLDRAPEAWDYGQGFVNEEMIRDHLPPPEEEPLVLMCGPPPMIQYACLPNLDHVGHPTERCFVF

Target: human recombinant Cb5R minus a His6-tag (human) (UniProt P00387)

Substance: Aβ(25–35) (peptide)
- inhibition of the rate of NADH-dependent reduction in Cb5 by Cb5R minus a His6-tag, up to 2 μM of Aβ(25–35): < 10%
